The chains behind the UniProt entries cited, without tags or fusion partners. Where a name states a change or a piece, a line headed by the entry shows the natural chain unless it says otherwise.
UniProt Q64326: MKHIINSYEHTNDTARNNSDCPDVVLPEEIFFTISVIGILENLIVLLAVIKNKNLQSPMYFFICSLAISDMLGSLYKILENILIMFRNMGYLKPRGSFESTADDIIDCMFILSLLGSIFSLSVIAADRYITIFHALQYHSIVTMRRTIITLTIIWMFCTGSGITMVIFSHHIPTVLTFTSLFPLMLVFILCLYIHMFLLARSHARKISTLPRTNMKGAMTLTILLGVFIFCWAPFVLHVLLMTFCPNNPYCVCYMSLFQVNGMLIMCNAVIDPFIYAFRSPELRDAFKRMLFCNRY
UniProt P41968: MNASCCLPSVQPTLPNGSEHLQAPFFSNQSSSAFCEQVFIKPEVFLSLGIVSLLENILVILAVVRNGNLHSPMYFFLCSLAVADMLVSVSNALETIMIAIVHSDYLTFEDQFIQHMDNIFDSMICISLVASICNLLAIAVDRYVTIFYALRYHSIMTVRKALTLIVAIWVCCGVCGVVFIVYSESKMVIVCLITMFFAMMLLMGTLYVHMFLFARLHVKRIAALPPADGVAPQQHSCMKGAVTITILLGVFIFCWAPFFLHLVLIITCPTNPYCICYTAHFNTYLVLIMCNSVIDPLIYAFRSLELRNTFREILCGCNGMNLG

According to US6953779B2, “Melanocortin receptor antagonists and modulations of melanocortin receptor activity” (The Regents of the University of California, priority 1998, dated 2005):

What was measured:
[1] = biological target: T1, ACTH (MCR-2) receptor endogenous to murine Y1 adrenocortical cells (Mus musculus, UniProt Q64326); experiment: cAMP concentration-response to ACTH-(1-24) in Y1 cells; assay type: cell-based; conditions: read-out: EC50 of ACTH-(1-24) alone
T1 construct: the ACTH (MCR-2) receptor endogenous to murine Y1 adrenocortical cells; endogenous in cells; host or cells: murine Y1 adrenocortical cells
Method: Peptide concentration-response measurements are made in HEK-293 cells by quantifying cAMP levels using a [8-^3H]-CAMP kit from Amersham. Briefly, cells transfected with MC receptors, plated to confluency in 96-well tissue culture plates, are rinsed for 1 hr with 70% (vol/vol) L-15 medium containing 0.5% bovine serum albumin. […] Cellular debris was separated from extracted samples by centrifugation, 400 μL aliquots of the supernatant lyophilized, and total cAMP content quantified by isotope counting.
Concentration response measurements were made also as described in Example 2, but in Xenopus fibroblasts, COS-7, HEK-293, and Y1 cells.

MCR-3 = MCR-3 (Homo sapiens, UniProt P41968); experiment: cAMP concentration-response to α-MSH in HEK-293 cells transfected with human MCR-3; assay type: cell-based; design: expressed in transfected cells; conditions: read-out: EC50 for α-MSH alone, Example 3
Text: A second method for studying MCR antagonists is to use mammalian cells stably transfected with the cDNA for various human MCR. These transfected cells manifest an increased CAMP response to α-MSH stimulation and agents which antagonize MCR will block this stimulating effect of α-MSH. The inhibitory effects of antagonists can be quantified by the change in the effective concentration (EC50) of α-MSH i the presence of antagonist, or by computation of Ki value by a Schild regression analysis.
Peptide concentration-response measurements are made in HEK-293 cells by quantifying cAMP levels using a [8-^3H]-CAMP kit from Amersham. Briefly, cells transfected with MC receptors, plated to confluency in 96-well tissue culture plates, are rinsed for 1 hr with 70% (vol/vol) L-15 medium containing 0.5% bovine serum albumin. After a 30 min exposure to test ligands, HEK-293 cells are rinsed twice with ice-cold 70% phosphate-buffered saline (0.07 g/L CaCl2, 0.07 g/L MgCl2.6H2O, 0.14 g/L KH2PO4, 1.51 g/L Na2HPO4.7H2O, 0.14 g/L KCl, 5.6 g/L NaCl, pH 7.4), and intracellular CAMP extracted with 1 mL of 60% (vol/vol) ethanol. Cellular debris was separated from extracted samples by centrifugation, 400 μL aliquots of the supernatant lyophilized, and total cAMP content quantified by isotope counting.
HEK-293 cells were maintained and transfected As described in Example 2. […]

| Substance | EC50 [1] [nM] | EC50 (MCR-3) [nM] |
| --- | --- | --- |
| ACTH-(1-24) | 1.8 ± 1.2 | – |
| α-MSH | – | 4.2 ± 2.1 |
